Data from US9382228B2 (priority 2013, dated 2016).

Protein sequences, listed by entry. Tags and fused reporters are not part of them. Lines headed by an entry give the natural chain unless they say otherwise; changes in a name come on top. Chains listed by the source or under a name are the forms on record and can include a tag or linker.
UniProt P09619: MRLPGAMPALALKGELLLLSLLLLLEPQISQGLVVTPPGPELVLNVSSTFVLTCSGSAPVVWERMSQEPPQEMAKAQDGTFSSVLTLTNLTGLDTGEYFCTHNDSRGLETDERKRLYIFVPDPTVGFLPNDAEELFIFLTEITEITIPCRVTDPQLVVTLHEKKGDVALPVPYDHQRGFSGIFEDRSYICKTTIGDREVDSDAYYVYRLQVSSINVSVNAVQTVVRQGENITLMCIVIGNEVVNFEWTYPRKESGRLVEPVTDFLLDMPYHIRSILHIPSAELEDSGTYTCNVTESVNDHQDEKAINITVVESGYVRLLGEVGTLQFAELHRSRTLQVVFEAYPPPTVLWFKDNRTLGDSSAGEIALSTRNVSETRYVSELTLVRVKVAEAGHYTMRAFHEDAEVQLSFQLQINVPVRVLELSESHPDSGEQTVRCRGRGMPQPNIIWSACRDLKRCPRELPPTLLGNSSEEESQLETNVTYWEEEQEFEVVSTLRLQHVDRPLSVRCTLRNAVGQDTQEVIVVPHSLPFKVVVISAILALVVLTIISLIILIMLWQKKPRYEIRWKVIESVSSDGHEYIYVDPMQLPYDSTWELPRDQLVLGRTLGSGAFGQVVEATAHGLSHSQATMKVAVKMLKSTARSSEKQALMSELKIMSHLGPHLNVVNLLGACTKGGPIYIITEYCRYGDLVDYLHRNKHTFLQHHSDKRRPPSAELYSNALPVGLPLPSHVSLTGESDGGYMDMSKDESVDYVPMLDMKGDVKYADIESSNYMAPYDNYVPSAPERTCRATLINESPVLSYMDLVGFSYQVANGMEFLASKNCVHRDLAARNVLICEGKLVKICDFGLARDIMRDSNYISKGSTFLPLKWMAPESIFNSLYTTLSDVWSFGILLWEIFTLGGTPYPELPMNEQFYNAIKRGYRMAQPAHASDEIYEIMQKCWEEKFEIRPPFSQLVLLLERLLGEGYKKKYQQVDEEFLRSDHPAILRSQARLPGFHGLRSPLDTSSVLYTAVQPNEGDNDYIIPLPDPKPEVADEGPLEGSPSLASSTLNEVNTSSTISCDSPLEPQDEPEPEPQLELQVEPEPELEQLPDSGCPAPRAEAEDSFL
UniProt P10721, with tags, fused parts or gaps: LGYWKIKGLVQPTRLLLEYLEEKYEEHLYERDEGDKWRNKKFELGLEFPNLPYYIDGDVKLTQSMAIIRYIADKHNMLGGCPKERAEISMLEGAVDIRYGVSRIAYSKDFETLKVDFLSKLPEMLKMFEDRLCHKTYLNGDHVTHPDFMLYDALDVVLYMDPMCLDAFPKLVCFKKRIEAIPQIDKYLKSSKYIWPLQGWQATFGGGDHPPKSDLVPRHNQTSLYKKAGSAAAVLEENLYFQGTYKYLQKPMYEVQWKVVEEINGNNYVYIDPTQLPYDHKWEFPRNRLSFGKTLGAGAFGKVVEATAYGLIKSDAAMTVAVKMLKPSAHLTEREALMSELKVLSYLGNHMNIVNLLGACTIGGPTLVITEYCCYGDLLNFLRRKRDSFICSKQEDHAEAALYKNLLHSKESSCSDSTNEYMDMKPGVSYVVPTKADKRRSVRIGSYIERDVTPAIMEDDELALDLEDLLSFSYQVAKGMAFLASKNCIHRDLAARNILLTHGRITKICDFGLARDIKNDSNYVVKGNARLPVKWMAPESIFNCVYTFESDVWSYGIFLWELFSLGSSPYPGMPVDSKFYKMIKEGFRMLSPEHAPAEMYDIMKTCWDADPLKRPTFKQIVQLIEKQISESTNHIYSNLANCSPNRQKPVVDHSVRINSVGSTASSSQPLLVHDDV

Columns and labels:
M-NFS-60 cells = assay: cells; settings: 67 h, read-out: M-NFS-60 cell proliferation
[1] = biological target: unphosphorylated PDGFRβ kinase (uPDGFRβ, Seq. ID No. 3) (Homo sapiens, UniProt P09619); assay: biochemical
[2] = biological target: unphosphorylated c-KIT kinase (uKIT, Seq. ID no. 2) (Homo sapiens, UniProt P10721); assay: biochemical
[3] = biological target: T1, unphosphorylated c-FMS kinase (uFMS, Seq. ID no. 1) (Homo sapiens, UniProt P07333); assay: biochemical; settings: IC50 (nM) uFMS, Table 3
T1 sequence (P07333 538-972): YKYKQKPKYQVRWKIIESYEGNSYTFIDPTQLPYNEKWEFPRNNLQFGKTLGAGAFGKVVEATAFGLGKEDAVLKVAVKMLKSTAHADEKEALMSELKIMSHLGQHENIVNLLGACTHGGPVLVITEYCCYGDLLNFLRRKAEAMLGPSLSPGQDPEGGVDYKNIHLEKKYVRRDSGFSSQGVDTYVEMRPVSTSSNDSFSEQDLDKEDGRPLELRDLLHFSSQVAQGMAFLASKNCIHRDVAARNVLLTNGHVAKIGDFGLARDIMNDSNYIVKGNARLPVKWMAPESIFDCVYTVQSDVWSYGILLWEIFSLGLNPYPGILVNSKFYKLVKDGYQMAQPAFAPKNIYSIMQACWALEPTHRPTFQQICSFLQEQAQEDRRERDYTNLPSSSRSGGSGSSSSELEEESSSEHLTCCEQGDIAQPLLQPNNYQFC

[4] = uPDGFRb, enzymatic assay, ATP 500 μM
[5] = uKIT, enzymatic assay, ATP 2000 μM

SMILES	IC50 [1, 4] [nM]	IC50 [2, 5] [nM]	IC50 [3] [nM]	IC50 ([2]; IC50 (nM) uKIT, Table 3) [nM]	IC50 ([1]; IC50 (nM) uPDGFRβ, Table 3) [nM]	IC50 (M-NFS-60 cells) [nM]
Cc1cc(-c2cc(Oc3ccc(NC(=O)NC(=O)C4CC(C)(C)C4)nc3C)ccn2)on1 [Example 14, 3,3-dimethyl-N-((6-methyl-5-((2-(3-methylisoxazol-5-yl)pyridin-4-yl)oxy)pyridin-2-yl)carbamoyl)cyclobutanecarboxamide]						< 10
COCC(=O)NC(=O)Nc1ccc(Oc2ccnc(-c3cnn(C)c3)c2)cn1 [Example 21, 2-methoxy-N-((5-((2-(1-methyl-1H-pyrazol-4-yl)pyridin-4-yl)oxy)pyridin-2-yl)carbamoyl)acetamide]	> 1000					100 to 1000
CC(C)C(=O)NC(=O)Nc1ccc(Oc2ccnc(-c3cnn(C)c3)c2)cn1 [Example 24, N-((5-((2-(1-methyl-1H-pyrazol-4-yl)pyridin-4-yl)oxy)pyridin-2-yl)carbamoyl)isobutyramide]						10 to 100
Cc1ccc(-c2cc(Oc3ccc(NC(=O)NC(=O)C(C)(C)C)nc3C)ccn2)cn1 [Example 39, N-((6-methyl-5-((6′-methyl-[2,3′-bipyridin]-4-yl)oxy)pyridin-2-yl)carbamoyl)pivalamide]	> 1000	> 1000				10 to 100
Cc1nc(NC(=O)NC(=O)CC(C)(C)C(F)(F)F)ccc1Oc1ccnc(-c2cnn(C)c2)c1 [Example 47, 4,4,4-trifluoro-3,3-dimethyl-N-((6-methyl-5-((2-(1-methyl-1H-pyrazol-4-yl)pyridin-4-yl)oxy)pyridin-2-yl)carbamoyl)butanamide]	10 to 100	< 10				10 to 100
Cn1cc(-c2cc(Oc3ccc(NC(=O)NC(=O)C4(C)CC4)nc3)ccn2)cn1 [Example 52, 1-methyl-N-((5-((2-(1-methyl-1H-pyrazol-4-yl)pyridin-4-yl)oxy)pyridin-2-yl)carbamoyl)cyclopropanecarboxamide]						< 10
COC(C)(C)C(=O)NC(=O)Nc1ccc(Oc2ccnc(-c3cnn(C)c3)c2)cn1 [Example 55, 2-methoxy-2-methyl-N-((5-((2-(1-methyl-1H-pyrazol-4-yl)pyridin-4-yl)oxy)pyridin-2-yl)carbamoyl)propanamide]	> 1000	> 1000	5	1300	1100	< 10
Cc1cc(-c2cc(Oc3ccc(NC(=O)NC(=O)C(C)(C)C)nc3C)ccn2)on1 [Example 76, N-((6-methyl-5-((2-(3-methylisoxazol-5-yl)pyridin-4-yl)oxy)pyridin-2-yl)carbamoyl)pivalamide]						10 to 100
Cn1cc(-c2cc(Oc3ccc(NC(=O)NC(=O)C4CC5CCC4O5)nc3)ccn2)cn1 (centres unmarked) [Example 111, N-((5-((2-(1-methyl-1H-pyrazol-4-yl)pyridin-4-yl)oxy)pyridin-2-yl)carbamoyl)-7-oxabicyclo[2.2.1]heptane-2-carboxamide]						< 10
COC1(C(=O)NC(=O)Nc2ccc(Oc3ccnc(-c4ccc(C5CCN(C)CC5)cc4)c3)c(C)n2)CC1 [Example 144, 1-methoxy-N-((6-methyl-5-((2-(4-(1-methylpiperidin-4-yl)phenyl)pyridin-4-yl)oxy)pyridin-2-yl)carbamoyl)cyclopropanecarboxamide]						< 10
COC1(C(=O)NC(=O)Nc2ccc(Oc3ccnc(-c4cnn(C)c4)c3)c(C)n2)CCCC1 [Example 150, 1-methoxy-N-((6-methyl-5-((2-(1-methyl-1H-pyrazol-4-yl)pyridin-4-yl)oxy)pyridin-2-yl)carbamoyl)cyclopentanecarboxamide]						< 10

Now from value to molecule, other results behind:

IC50 [1, 4] [nM]	IC50 [2, 5] [nM]	IC50 [3] [nM]	IC50 ([2]; IC50 (nM) uKIT, Table 3) [nM]	IC50 ([1]; IC50 (nM) uPDGFRβ, Table 3) [nM]	SMILES	IC50 (M-NFS-60 cells) [nM]
		4			Cc1cc(-c2cc(Oc3ccc(NC(=O)NC(=O)C(C)(C)C)nc3C)ccn2)ccn1 [Example 56, N-((6-methyl-5-((2′-methyl-[2,4′-bipyridin]-4-yl)oxy)pyridin-2-yl)carbamoyl)pivalamide]	< 10
	100 to 1000				Cc1nc(NC(=O)NC(=O)CCCOC(F)(F)F)ccc1Oc1ccnc(-c2cnn(C)c2)c1 [Example 59, N-((6-methyl-5-((2-(1-methyl-1H-pyrazol-4-yl)pyridin-4-yl)oxy)pyridin-2-yl)carbamoyl)-4-(trifluoromethoxy)butanamide]	10 to 100
> 1000	> 1000				Cc1cc(-c2cc(Oc3ccc(NC(=O)NC(=O)C(C)C)nc3C)ccn2)ccn1 [Example 79, N-((6-methyl-5-((2′-methyl-[2,4′-bipyridin]-4-yl)oxy)pyridin-2-yl)carbamoyl)isobutyramide]	10 to 100
> 1000	> 1000				CC(C)C(=O)NC(=O)Nc1ccc(Oc2ccnc(-c3cnn(C)c3)c2)c(C(F)(F)F)n1 [Example 82, N-((5-((2-(1-methyl-1H-pyrazol-4-yl)pyridin-4-yl)oxy)-6-(trifluoromethyl)pyridin-2-yl)carbamoyl)isobutyramide]	> 1000
> 1000	> 1000				CCC(=O)NC(=O)Nc1ccc(Oc2ccnc(-c3cnc(C)s3)c2)cn1 [Example 98, N-((5-((2-(2-methylthiazol-5-yl)pyridin-4-yl)oxy)pyridin-2-yl)carbamoyl)propionamide]	> 1000
	10 to 100				Cc1ccc(-c2cc(Oc3ccc(NC(=O)NC(=O)C4(C)CC4)nc3)ccn2)cn1 [Example 114, 1-methyl-N-((5-((6′-methyl-[2,3′-bipyridin]-4-yl)oxy)pyridin-2-yl)carbamoyl)cyclopropanecarboxamide]	10 to 100
	100 to 1000				Cc1ncc(-c2cc(Oc3ccc(NC(=O)NC(=O)C4(C)CC4)nc3)ccn2)s1 [Example 121, 1-methyl-N-((5-((2-(2-methylthiazol-5-yl)pyridin-4-yl)oxy)pyridin-2-yl)carbamoyl)cyclopropanecarboxamide]	10 to 100
> 1000	> 1000				Cc1cn(-c2cc(Oc3ccc(NC(=O)NC(=O)C4(C)CCC4)nc3C)ccn2)cn1 [Example 147, 1-methyl-N-((6-methyl-5-((2-(4-methyl-1H-imidazol-1-yl)pyridin-4-yl)oxy)pyridin-2-yl)carbamoyl)cyclobutanecarboxamide]	10 to 100
10 to 100	10 to 100				COC1(C(=O)NC(=O)Nc2ccc(Oc3ccnc(-c4cnn(C)c4)c3)cn2)CCCC1 [Example 153, 1-methoxy-N-((5-((2-(1-methyl-1H-pyrazol-4-yl)pyridin-4-yl)oxy)pyridin-2-yl)carbamoyl)cyclopentanecarboxamide]	< 10
